The text below walks through data of ChEMBL document CHEMBL1146130, “Benzoxazole benzenesulfonamides as allosteric inhibitors of fructose-1,6-bisphosphatase” (Bioorg Med Chem Lett, 2006).

Usually IC50 stands for the concentration at which inhibition is half-maximal. Read a low IC50 as greater potency in that assay.

This assay concerns the target T1, Fructose-1,6-bisphosphatase 1 (Homo sapiens, UniProt P09467).
T1 sequence (P09467 whole entry): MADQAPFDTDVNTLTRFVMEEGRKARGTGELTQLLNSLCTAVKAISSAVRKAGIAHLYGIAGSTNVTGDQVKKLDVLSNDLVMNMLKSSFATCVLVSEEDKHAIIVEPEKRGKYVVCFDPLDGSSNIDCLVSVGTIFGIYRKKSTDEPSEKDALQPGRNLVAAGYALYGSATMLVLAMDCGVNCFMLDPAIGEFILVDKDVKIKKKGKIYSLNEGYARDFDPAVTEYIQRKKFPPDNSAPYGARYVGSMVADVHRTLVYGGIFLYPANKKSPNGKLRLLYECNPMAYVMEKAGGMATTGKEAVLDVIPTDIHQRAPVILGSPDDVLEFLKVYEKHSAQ
Nature of the assay: Inhibition of human FBPase1.

Molecule `COc1cc(-c2cccc(N)c2)c2oc(NS(=O)(=O)c3cc(Cl)ccc3Cl)nc2c1` showed a 50% inhibitory concentration (IC50) of 570 nM.
